Data as given in patent US10155802B2, “Locally-active anticoagulants and anti-inflammatory agents” (priority 2011, dated 2018).

Assays:
Human α-thrombin = target: T1, Human α-thrombin (Homo sapiens, UniProt P00734); experiment: Inhibition of thrombin-catalyzed hydrolysis of chromogenic substrate S-2366 (inhibition constant Ki); assay type: biochemical; details: KD (dissociation constant of open species = Ki x popen), T = 37° C.
T1 construct: Human α-thrombin was purchased from Haemotologic Technologies, Inc., VT, USA; purchased Haemotologic Technologies, Inc., VT, USA

[1] = Thermal unfolding of hairpin linkers (Tm, unfolded population punfold); assay type: physicochemical; details: calculated, two-state unfolding
Excerpt: Assuming a two-state unfolding of the trpzip linkers, the unfolded populations punfold=popen (Table 3) can be calculated using reported thermal characteristics of isolated trpzip peptides (Cochran 2001). It is important (Cochran 2001) to take into consideration bulk temperature dependences of the enthalpy and entropy differences between folded and unfolded states of trpzip peptides (Privalov 1997). Disregard for the appreciable ΔCp difference between folded and unfolded species would lead to particularly large underestimation of punfold for BTI5, since the bulk temperatures used for Ki determination were far from the trpzip4 folding transition point.
The punfold value for the BTI2 inhibitor was calculated using ΔH=11.6 kcal/mol and ΔS=39 cal/mol/K obtained in earlier studies of the gb1 peptide (Munoz 1997), which gives punfold values of 0.44 and 0.69 at 21° C. and 37° C., respectively. […] (Table 3). More importantly, all the KD values are close to those of BTI1 which contains a flexible (or random-coil) (GS)8 linker, which confirms the predicted small variation in KD values for bivalent ligands connected by flexible linkers of equal contour length and similar composition (Zhou 2001a; Zhou, 2001b).

Row | SMILES | Kd (Human α-thrombin) [nM] | punfold (population of unfolded/open linker) ([1]; T = 21° C.) | punfold (population of unfolded/open linker) ([1]; T = 37° C.)
1 | CC[C@H](C)[C@H](NC(=O)[C@H](CCC(=O)O)NC(=O)[C@H](CCC(=O)O)NC(=O)[C@H](Cc1ccccc1)NC(=O)[C@H](CC(=O)O)NC(=O)CNC(=O)[C@H](CCC(=O)O)NC(=O)[C@@H](NC(=O)[C@@H](NC(=O)[C@@H](NC(=O)[C@H](Cc1ccccc1)NC(=O)[C@@H](NC(=O)[C@H](CCCCN)NC(=O)[C@@H](NC(=O)[C@H](C)NC(=O)[C@H](CC(=O)O)NC(=O)[C@H](CC(=O)O)NC(=O)[C@H](Cc1ccc(O)cc1)NC(=O)[C@@H](NC(=O)[C@H](Cc1c[nH]c2ccccc12)NC(=O)[C@H](CCC(=O)O)NC(=O)CNC(=O)[C@H]1CCCCN1C(=O)[C@H](CCCNC(=N)N)NS(=O)(=O)c1ccc(C(C)(C)C)cc1)[C@@H](C)O)[C@@H](C)O)[C@@H](C)O)[C@@H](C)O)C(C)C)[C@@H](C)O)C(=O)N1CCC[C@H]1C(=O)N[C@@H](CCC(=O)O)C(=O)N[C@@H](CCC(=O)O)C(=O)N[C@@H](Cc1ccc(O)cc1)C(=O)N[C@@H](CC(C)C)C(=O)N[C@@H](CCC(N)=O)C(=O)O [BTI2] | 2.8 ± 0.1 | 0.44 | 0.69
2 | CC[C@H](C)[C@H](NC(=O)[C@H](CCC(=O)O)NC(=O)[C@H](CCC(=O)O)NC(=O)[C@H](Cc1ccccc1)NC(=O)[C@H](CC(=O)O)NC(=O)CNC(=O)[C@H](CCC(=O)O)NC(=O)[C@@H](NC(=O)[C@@H](NC(=O)[C@@H](NC(=O)[C@H](Cc1c[nH]c2ccccc12)NC(=O)[C@@H](NC(=O)[C@H](CCCCN)NC(=O)[C@@H](NC(=O)[C@H](C)NC(=O)[C@H](CC(=O)O)NC(=O)[C@H](CC(=O)O)NC(=O)[C@H](Cc1c[nH]c2ccccc12)NC(=O)[C@@H](NC(=O)[C@H](Cc1c[nH]c2ccccc12)NC(=O)[C@H](CCC(=O)O)NC(=O)CNC(=O)[C@H]1CCCCN1C(=O)[C@H](CCCNC(=N)N)NS(=O)(=O)c1ccc(C(C)(C)C)cc1)[C@@H](C)O)[C@@H](C)O)[C@@H](C)O)[C@@H](C)O)C(C)C)[C@@H](C)O)C(=O)N1CCC[C@H]1C(=O)N[C@@H](CCC(=O)O)C(=O)N[C@@H](CCC(=O)O)C(=O)N[C@@H](Cc1ccc(O)cc1)C(=O)N[C@@H](CC(C)C)C(=O)N[C@@H](CCC(N)=O)C(=O)O [BTI3] | – | 0.29 ± 0.09 | 0.41 ± 0.09
3 | CC[C@H](C)[C@H](NC(=O)[C@H](CCC(=O)O)NC(=O)[C@H](CCC(=O)O)NC(=O)[C@H](Cc1ccccc1)NC(=O)[C@H](CC(=O)O)NC(=O)CNC(=O)[C@H](CCC(=O)O)NC(=O)[C@@H](NC(=O)[C@H](Cc1c[nH]c2ccccc12)NC(=O)[C@@H](NC(=O)[C@H](Cc1ccccc1)NC(=O)[C@@H](NC(=O)[C@H](CCCCN)NC(=O)[C@@H](NC(=O)[C@H](C)NC(=O)[C@H](CC(=O)O)NC(=O)[C@H](CC(=O)O)NC(=O)[C@H](Cc1ccc(O)cc1)NC(=O)[C@@H](NC(=O)[C@H](Cc1c[nH]c2ccccc12)NC(=O)[C@H](CCC(=O)O)NC(=O)CNC(=O)[C@H]1CCCCN1C(=O)[C@H](CCCNC(=N)N)NS(=O)(=O)c1ccc(C(C)(C)C)cc1)[C@@H](C)O)[C@@H](C)O)[C@@H](C)O)[C@@H](C)O)[C@@H](C)O)C(=O)N1CCC[C@H]1C(=O)N[C@@H](CCC(=O)O)C(=O)N[C@@H](CCC(=O)O)C(=O)N[C@@H](Cc1ccc(O)cc1)C(=O)N[C@@H](CC(C)C)C(=O)N[C@@H](CCC(N)=O)C(=O)O [BTI4] | 2.8 ± 0.4 | 0.24 ± 0.04 | 0.41 ± 0.05
4 | CC[C@H](C)[C@H](NC(=O)[C@H](CCC(=O)O)NC(=O)[C@H](CCC(=O)O)NC(=O)[C@H](Cc1ccccc1)NC(=O)[C@H](CC(=O)O)NC(=O)CNC(=O)[C@H](CCC(=O)O)NC(=O)[C@@H](NC(=O)[C@H](Cc1c[nH]c2ccccc12)NC(=O)[C@@H](NC(=O)[C@H](Cc1c[nH]c2ccccc12)NC(=O)[C@@H](NC(=O)[C@H](CCCCN)NC(=O)[C@@H](NC(=O)[C@H](C)NC(=O)[C@H](CC(=O)O)NC(=O)[C@H](CC(=O)O)NC(=O)[C@H](Cc1c[nH]c2ccccc12)NC(=O)[C@@H](NC(=O)[C@H](Cc1c[nH]c2ccccc12)NC(=O)[C@H](CCC(=O)O)NC(=O)CNC(=O)[C@H]1CCCCN1C(=O)[C@H](CCCNC(=N)N)NS(=O)(=O)c1ccc(C(C)(C)C)cc1)[C@@H](C)O)[C@@H](C)O)[C@@H](C)O)[C@@H](C)O)[C@@H](C)O)C(=O)N1CCC[C@H]1C(=O)N[C@@H](CCC(=O)O)C(=O)N[C@@H](CCC(=O)O)C(=O)N[C@@H](Cc1ccc(O)cc1)C(=O)N[C@@H](CC(C)C)C(=O)N[C@@H](CCC(N)=O)C(=O)O [BTI5] | – | 0.050 ± 0.004 | 0.082 ± 0.006
